The results in this text go back to patent publication US20100035871A1, “BENZOXAZINE DERIVATIVES AND USES THEREOF” (priority 2006, published 2010).

Sequences of proteins named here, by UniProt entry; tags and fusion partners are left off. Residues count along the entry.
UniProt P28335, 33-458: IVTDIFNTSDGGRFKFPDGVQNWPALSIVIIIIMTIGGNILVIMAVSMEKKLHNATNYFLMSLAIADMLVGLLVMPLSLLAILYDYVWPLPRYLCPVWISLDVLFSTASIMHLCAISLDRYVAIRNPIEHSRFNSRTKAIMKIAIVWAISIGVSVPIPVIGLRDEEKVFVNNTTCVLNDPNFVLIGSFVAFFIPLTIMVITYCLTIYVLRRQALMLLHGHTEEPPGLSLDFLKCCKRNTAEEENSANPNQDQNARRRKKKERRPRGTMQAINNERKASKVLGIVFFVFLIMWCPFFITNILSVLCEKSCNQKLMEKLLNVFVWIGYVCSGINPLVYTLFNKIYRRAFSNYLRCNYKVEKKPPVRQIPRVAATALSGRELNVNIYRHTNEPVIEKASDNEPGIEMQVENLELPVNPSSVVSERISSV

Test [1] concerns the target T1, human 5-HT2C receptor (Homo sapiens, UniProt P28335).
T1 construct: expressed in transfected cells; host or cells: CHO (Chinese Hamster Ovary) cells; membrane preparation
Kind of test: 5-HT2C receptor binding, [125I]DOI displacement, membranes of transfected CHO cells. As to conditions: reference compounds; value (95% confidence interval); [125I]DOI binding.

The target in test [2] is T1, human 5-HT2C receptor. Kind of test: 5-HT2C receptor-stimulated calcium mobilization (FLIPR) in CHO cells. It is filed as cell-based. The conditions noted are these: reference compounds. (A change in cytosolic calcium serves as a functional read-out for many receptors and channels.)

In the case of “1-(2,5-dimethoxy-4-iodophenyl)isopropylamine [DOI, reference compound]”, the affinity at human 5-HT2C receptor [1], expressed as Ki, was 6.2 nM. Also, the EC50 at human 5-HT2C receptor [2] came to 0.5 nM.

As a reminder, the Ki is the equilibrium dissociation constant of an inhibitor or competing ligand from its target. Higher therefore signals weaker binding. The EC50 is the concentration needed to bring the measured effect to its halfway point.
